Antibody variant affinities, Ab-14 light chain, assay B

From the AlphaSeq antibody data of Li et al. 2023 (doi:10.1038/s41467-023-39022-2), copy in the FLAb collection.

Target peptide (SARS-CoV-2 spike, HR2 region): PDVDLGDISGINAS

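The starting antibody came from a phage panning campaign against this peptide. This is the validation round: designs drawn from the data on random variants, tested in the same kind of assay. Group labels follow the data file (Ctrl: baseline library sampled from a position-specific scoring matrix, with some repeated check sequences; Rand: our label for a block that the file lists under HC and that is probably the random mutants of the ten best first-round binders; GP: Gaussian process model; HC: hill climbing; Gen: genetic algorithm; Gibbs: Gibbs sampling; a sequence that several methods proposed may carry one label only). The assay is AlphaSeq: two haploid yeast populations carry antibody and antigen on their surface. Binding brings cells together so that they mate, and sequencing counts the barcode pairs among the diploids. Scores were corrected for input abundance and mapped to Kd with protein pairs of known affinity run in the same pool. There are six technical replicates.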

Each scFv is VH, the linker GGGGSGGGGSGGGGS, VL, as in the parent Ab-14, and differs from it in the CDRs of the light chain only.
VH: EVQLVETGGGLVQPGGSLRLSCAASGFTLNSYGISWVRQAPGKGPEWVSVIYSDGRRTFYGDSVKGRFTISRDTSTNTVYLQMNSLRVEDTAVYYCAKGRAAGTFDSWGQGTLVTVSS
VL: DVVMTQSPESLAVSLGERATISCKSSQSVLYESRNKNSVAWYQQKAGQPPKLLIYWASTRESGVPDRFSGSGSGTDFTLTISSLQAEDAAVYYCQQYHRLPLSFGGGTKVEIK

Changes read parent residue, position, new residue, counted from the first residue of the VL shown.
Variants here have at most six changes.
Each Kd is an estimate from the mating assay, the geometric mean of the replicates in which the pair was seen; lower is stronger.
Where no diploid with the target was found in any replicate, the entry reads "not detected": below detection, most likely a poor binder, though not proof of it.
The authors averaged sequences with at least three values out of six and counted those with two or fewer as poor binders.

changes	group	Kd (apparent)	seen in
V39L	Ctrl	6.5 nM	6/6
K24H S25L Q27F W56N S103F	GP_HC	810 pM	6/6
S25V N35M W56D E61C	GP_HC	3.6 nM	6/6
S25L L30G Y31M E32Q N37W W56E	GP_Gibbs	120 nM	6/6
S25Q Q27E V29Y W56E	GP_HC	15 nM	6/6
R34E W56E H98Q	Ctrl	8.2 nM	4/6
S25L S26R V29T W56K E61L	GP_HC	24 nM	6/6
S25L S26Q W56H T59L S62D	GP_HC	580 pM	6/6
V29T	Ctrl	25 nM	6/6
S25F L30A N35T W56N A57N Y97A	Rand	not detected	0/6
S25L S26Q W56N E61M S62E	GP_Gen	420 pM	6/6
S25L S26Q V29E W56S E61L	GP_Gen	3.4 nM	6/6
S25V L30G W56N	GP_Gen	1.1 nM	6/6
R34H	Ctrl	81 nM	6/6
S25D L30E R34M K36Q	Ctrl	not detected	0/6
W56S E61A S103Q	Ctrl	33 nM	6/6
S25L L30W W56E S62Q	GP_Gen	450 pM	6/6
S25V V29E W56E E61M	GP_Gen	850 pM	6/6
Q27Y V29E Y31G S33K W56E	GP_HC	1.1 nM	6/6
S25L S26V V29E W56N T59Q	GP_Gen	730 pM	6/6
K24H S25L S28V W56N	GP_HC	800 pM	6/6
S26G Y31L W56G T59I E61F	Ctrl	9.5 nM	6/6
L30D S62N Y97P R99T	Ctrl	270 nM	1/6
W56Y R99Y	Ctrl	not detected	0/6
W56D S62H	Ctrl	1.1 nM	6/6
S25Q R34M W56D	GP_HC	2.7 nM	6/6
S25L S26P V29M L30E N35M W56A	GP_Gibbs	970 pM	6/6
W56S Q96R	Ctrl	not detected	0/6
S25L V29W K36S W56D E61L	GP_Gibbs	1.3 nM	6/6
K24H Q27P R34Y W56N	Rand	740 pM	6/6
Y31T W56E T59H E61A S62I H98V	Ctrl	1.0 nM	6/6
V29W	Ctrl	51 nM	2/6
S25F W56N Q96D	GP_Gen	820 pM	6/6
S25V N35V W56D T59M	GP_Gibbs	850 pM	6/6
K24L Q27S V29Y R34M W56E	GP_HC	3.1 nM	6/6
S25I V29E Y31E T59V S62A	GP_Gibbs	840 pM	6/6
T59Q R99D	Ctrl	900 nM	2/6
S25Q S26E Q27I Y31Q W56N S62V	GP_Gibbs	880 pM	6/6
S25L V29E W56N T59Q	GP_Gen	8.7 nM	6/6
S25L V29Y S38N W56N	GP_Gen	5.8 nM	6/6
V29Q R34P Q95F	Ctrl	280 nM	3/6
S25L Q27W R34N W56H S62D	GP_HC	1.7 nM	6/6
S26D E32T S38G W56K H98D S103L	Ctrl	110 nM	1/6
Y31E N37G W56D A57E H98A	Ctrl	98 nM	6/6
S25V V29F W56D S58N	GP_HC	490 pM	6/6
S28I R34I	Ctrl	16 nM	5/6
Q27P W56A E61I	Ctrl	670 pM	6/6
S25V V29H S38A W56E T59Q	GP_Gen	230 pM	6/6
S25V Q27P V29E W56E T59Q	GP_Gen	1.7 nM	6/6
S26L V29H W56H S62D R99Q	GP_HC	3.5 nM	6/6
S25L S26E V29T W56E	GP_HC	640 pM	6/6
Y31S S38N	Ctrl	52 nM	6/6
W56Q T59L	Ctrl	5.6 nM	6/6
L30G R34E K36N V39C L100D	Ctrl	not detected	0/6
L30W Y31G Y97G R99S L100P	Ctrl	890 nM	5/6
S26E V39E W56R	Ctrl	not detected	0/6
S25L W56G T59Q E61L	GP_Gen	690 pM	6/6
L30S Y31N W56G	Ctrl	2.4 nM	6/6
S28A R60G	Ctrl	not detected	0/6
S25L S26Q V29Q W56Q	GP_Gen	1.3 nM	6/6
S25L S26R Q27G V29T W56L	GP_HC	29 nM	6/6
S25F W56E A57G	GP_Gen	1.0 nM	6/6
R34Y N35Y W56S H98V	Ctrl	89 nM	5/6
S25L R34S	Ctrl	7.8 nM	6/6
S25L S26M V29M W56N T59Q	GP_Gen	260 pM	6/6
S25V V29W W56G	GP_Gen	990 pM	6/6
S25M Y31M R34S S62L	Ctrl	39 nM	6/6
S25V	Ctrl+GP_Gen	12 nM	12/12
S25Q L30E Y31G R34S W56N S62Q	GP_Gibbs	1.0 nM	6/6
S38A W56Q	Ctrl	3.0 nM	6/6
Q27L V29D W56H S62V	Ctrl	1.0 nM	6/6
S25Q S28W S33M W56D S58W	Rand	6.2 nM	6/6
S62L H98D P101E	Ctrl	not detected	0/6
K36A W56D S62Q	Ctrl	460 pM	6/6
S25F V29Q N35M W56N	GP_Gen	1.3 nM	6/6
S25V Q27A V29Y Y31L W56E	GP_HC	390 pM	6/6
S25L S26Q V29H W56D E61L	GP_Gen	1.4 nM	6/6
W56N E61V Q96A	Ctrl	18 nM	6/6

From the list, the first 8 with no signal in any replicate:

changes	group	Kd (apparent)	seen in
S25F L30A N35T W56N A57N Y97A	Rand	not detected	0/6
S25D L30E R34M K36Q	Ctrl	not detected	0/6
W56Y R99Y	Ctrl	not detected	0/6
W56S Q96R	Ctrl	not detected	0/6
L30G R34E K36N V39C L100D	Ctrl	not detected	0/6
S26E V39E W56R	Ctrl	not detected	0/6
S28A R60G	Ctrl	not detected	0/6
S62L H98D P101E	Ctrl	not detected	0/6

Nonspecific signal, from three strains lacking the peptide, appeared in 4% of pairings of all light chain designs, centred on 430 nM (5% of these signals below 38 nM); values are not corrected for it.
The parent sequence was in this pool as ten entries: three were never detected, three once, and four in most replicates, with averages from 2.2 nM to 240 nM.
A sequence measured in both rounds can read differently, since the two assays cover different ranges.
Where one sequence has several entries in the source, the replicates are pooled.